Source: BindingDB's records for PubMed 1652050 (Seattle Veterans Affairs Medical Center, 1991)

Amino acid sequences for entries named in this document (tags omitted). A change or cut given only in a name is not applied to a line headed by its entry.
UniProt P28221: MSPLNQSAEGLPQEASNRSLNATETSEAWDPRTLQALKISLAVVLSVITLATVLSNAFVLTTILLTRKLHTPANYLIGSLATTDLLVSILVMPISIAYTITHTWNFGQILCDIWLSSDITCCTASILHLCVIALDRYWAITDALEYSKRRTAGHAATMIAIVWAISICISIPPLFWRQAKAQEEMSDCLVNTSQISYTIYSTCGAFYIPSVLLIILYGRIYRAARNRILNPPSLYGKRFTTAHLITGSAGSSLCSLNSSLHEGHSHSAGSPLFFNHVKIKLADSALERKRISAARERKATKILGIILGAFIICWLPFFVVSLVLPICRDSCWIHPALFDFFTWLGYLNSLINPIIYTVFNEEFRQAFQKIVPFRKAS

Biological target: 5-hydroxytryptamine receptor 1D (Homo sapiens, UniProt P28221)

Molecule `COc1ccc2[nH]cc(CCN)c2c1` [tryptamine, 5-Methoxy] has a Ki of 2.2 nM.
